The values below come from US5039512A, “NMR imaging with paramagnetic polyvalent metal salts of poly-(acid-alkylene-amino)-alkanes” (Salutar, Inc., priority 1987, dated 1991).

Series [1] is described as follows: Stability constant (binding ability) towards manganese. Particulars: relative to its EDTA analogue.
Series [2] is described as follows: Relaxivities (T1, T2) of protons in plasma exposed to the complexes. Type of series: physicochemical. The settings on record: 10 mHz, 37° C. As for the experimental part:
(§1) c) Relaxitivities of protons present in water and plasma exposed to the complexes of (a) and (b) (at 10 mHz) (37° C.) in milliseconds:
(§2) c) Relaxivities of protons present in water and plasma exposed to (a) and (b) at 10 mHz (37 C) in milliseconds: […]

The nature of series [3]: Relaxivities (T1, T2) of protons in water exposed to the complexes. The settings on record: 10 mHz, 37° C. Type of series: physicochemical. As for the experimental part:
as §1, §2

The nature of series [4]: Organ distribution in male rabbits, proton relaxation values in vitro (Example 2). The settings on record: 15 minutes post-injection, in vitro 10 mHz. Format: in vivo. On the procedure: e) Organ distribution of (a) and (b) in male rabbits: The rabbits were sacrificed at 69 minutes post injection for (a) and 15 minutes post-injection for (b) and the proton relaxation values measured in milliseconds, in vitro at 10 mHz, for each of the various organs.

For the substance “manganese salt of trans-N,N,N',N'-tetra-carboxymethyl-1,2-diaminocyclohexane [manganese salt of DCTA]”, the “Stability of manganese-nitrogen bond” value in series [1] was “considerably more stable than its EDTA analogue”.
In the case of “calcium salt of the gadolinium complex of trans-1,2-diamino-cyclohexane-N,N,N',N'tetramethylene phosphonic acid [Example 3(b)]”, the T1 plasma in series [2] (1 × 10^-2 moles/liter) is given as 14 milliseconds; in series [2] (1.25 × 10^-3 moles/liter), 60 milliseconds; in series [2] (1.56 × 10^-4 moles/liter), 263 milliseconds; in series [2] (2.5 × 10^-3 moles/liter) it was 36 milliseconds; in series [2] (3.12 × 10^-4 moles/liter), 149 milliseconds; in series [2] (5 × 10^-3 moles/liter), 20 milliseconds. Moreover, the results for the T1 plasma in series [2] (6.25 × 10^-4 moles/liter) and in series [2] (7.80 × 10^-5 moles/liter) were 95 milliseconds and 447 milliseconds, respectively. Besides, the T2 plasma came to 7 milliseconds in series [2] (1 × 10^-2 moles/liter), 42 milliseconds in series [2] (1.25 × 10^-3 moles/liter), 26 milliseconds in series [2] (2.5 × 10^-3 moles/liter) and 16 milliseconds in series [2] (5 × 10^-3 moles/liter). For the same substance, the T1 water in series [3] (1 × 10^-2 moles/liter) stood at 15 milliseconds; in series [3] (1.25 × 10^-3 moles/liter), 70 milliseconds; in series [3] (1.56 × 10^-4 moles/liter), 468 milliseconds; in series [3] (2.5 × 10^-3 moles/liter) it was 49 milliseconds; in series [3] (3.12 × 10^-4 moles/liter) it was 257 milliseconds; in series [3] (5 × 10^-3 moles/liter), 25 milliseconds. Further, the T1 water in series [3] (6.25 × 10^-4 moles/liter) is listed as 126 milliseconds; in series [3] (7.80 × 10^-5 moles/liter), 762 milliseconds. Also, the T2 water in series [3] (1 × 10^-2 moles/liter) is recorded as 8 milliseconds; in series [3] (1.25 × 10^-3 moles/liter), 65 milliseconds; in series [3] (2.5 × 10^-3 moles/liter), 35 milliseconds; in series [3] (5 × 10^-3 moles/liter) it was 17 milliseconds; in series [3] (6.25 × 10^-4 moles/liter), 114 milliseconds.
As to “calcium salt of the manganese complex of trans-1,2-diamino-cyclohexane-N,N,N',N'-tetramethylene phosphonic acid [Example 2(b)]”, the T1 testis in series [4] amounted to 294 milliseconds. The same substance gave a T2 testis in series [4] of 79 milliseconds. Further, in series [4] (male rabbits), the T1 brain turned out to be 537 milliseconds. The T2 brain in series [4] (male rabbits) was 85 milliseconds. Moreover, in series [4] (normal value 47), the T2 skeletal muscle is recorded as 34 milliseconds. Besides, the T2 stomach in series [4] (normal value 69) worked out at 42 milliseconds. Besides, the T2 heart in series [4] (normal value 70) is recorded as 40 milliseconds. Further, in series [4] (normal value 77), the T2 large intestine came out at 58 milliseconds. In series [4] (normal value 79), the T2 small intestine came out at 60 milliseconds. In addition, the T2 renal cortex in series [4] (normal value 85) is recorded as 51 milliseconds. In series [4] (normal value 112), the T2 lung was determined as 84 milliseconds. In addition, the T2 renal medulla in series [4] (normal value 149) was found to be 47 milliseconds. In series [4] (normal value 154), this substance had a T2 fat of 95 milliseconds. In series [4] (normal value 171), the T1 fat was determined as 157 milliseconds. The T1 renal cortex in series [4] (normal value 338) was 109 milliseconds. In series [4] (normal value 349), the T1 large intestine is 248 milliseconds. The substance further showed a T1 stomach in series [4] (normal value 349) of 199 milliseconds. The substance also came in with a T1 small intestine in series [4] (normal value 352) of 269 milliseconds. In series [4] (normal value 423), this substance gave a T1 skeletal muscle of 395 milliseconds. The substance also returned a T1 heart in series [4] (normal value 504) of 191 milliseconds. Moreover, the T1 lung in series [4] (normal value 595) was 323 milliseconds. The substance further returned a T1 renal medulla in series [4] (normal value 672) of 103 milliseconds. Besides, the T1 plasma turned out to be 15 milliseconds in series [2] (1 × 10^-2 moles/liter); 91 milliseconds in series [2] (1.25 × 10^-3 moles/liter); 269 milliseconds in series [2] (1.56 × 10^-4 moles/liter); 51 milliseconds in series [2] (2.5 × 10^-3 moles/liter); 212 milliseconds in series [2] (3.12 × 10^-4 moles/liter); 142 milliseconds in series [2] (6.25 × 10^-4 moles/liter). In series [2] (7.80 × 10^-5 moles/liter), this substance showed a T1 plasma of 372 milliseconds. Also, the T2 plasma in series [2] (1 × 10^-2 moles/liter) worked out at 10 milliseconds; in series [2] (1.25 × 10^-3 moles/liter) it was 74 milliseconds; in series [2] (2.5 × 10^-3 moles/liter), 45 milliseconds. Also, the T1 water in series [3] (1 × 10^-2 moles/liter) came out at 16 milliseconds; in series [3] (1.25 × 10^-3 moles/liter), 88 milliseconds; in series [3] (1.56 × 10^-4 moles/liter), 555 milliseconds; in series [3] (2.5 × 10^-3 moles/liter) it was 54 milliseconds; in series [3] (3.12 × 10^-4 moles/liter), 310 milliseconds; in series [3] (6.25 × 10^-4 moles/liter), 172 milliseconds. In addition, in series [3] (7.80 × 10^-5 moles/liter), the T1 water was found to be 987 milliseconds. The values for the T2 water in series [3] (1 × 10^-2 moles/liter), in series [3] (1.25 × 10^-3 moles/liter) and in series [3] (2.5 × 10^-3 moles/liter) were 8 milliseconds, 69 milliseconds and 36 milliseconds, respectively.
